Antibody variant affinities, Ab-14 heavy chain, assay 1

The target is the same throughout: PDVDLGDISGINAS, from the HR2 region of SARS-CoV-2 spike.

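Phage display of a naive human antibody library on the peptide gave the parent. AAYL49 was designed without a model: most single CDR substitutions and a random sample of double and triple ones. The scFvs were displayed on barcoded MATa yeast, the peptide on MATalpha yeast. After mating in shaken culture at 30 °C for 16 h, diploids were selected and their barcode pairs sequenced. Each replicate has its own calibration line, from reference interactions of the BCL2 family. Mating was done three times.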

Ab-14 is the parent antibody, in scFv form: VH, then three GGGGS repeats, then VL. The light chain is unchanged in all variants.
VH: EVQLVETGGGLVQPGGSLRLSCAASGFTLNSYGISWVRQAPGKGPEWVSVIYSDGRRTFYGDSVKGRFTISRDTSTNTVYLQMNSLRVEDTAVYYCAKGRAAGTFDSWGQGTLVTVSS
VL: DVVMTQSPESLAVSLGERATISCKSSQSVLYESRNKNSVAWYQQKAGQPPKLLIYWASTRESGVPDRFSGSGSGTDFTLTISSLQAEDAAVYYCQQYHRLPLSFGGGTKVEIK

Each variant is given by its three heavy chain CDRs, as the data file delimits them; those of the parent are GFTLNSYGIS, VIYSDGRRTFYGDSVK, GRAAGTFDS.
Numbers give log10(Kd / nM), so 0 is 1 nM and 3 is 1 µM. Smaller is tighter.
The mean shown is taken over the replicates in which the pair was detected.
Where no diploid with the target was found in that replicate, the entry reads "n.d.": below detection, most likely a poor binder, though not proof of it.
Nonspecific signal, from three strains lacking the peptide, appeared in 15% of pairings of library AAYL49, centred on 4.06 (5% of these signals below 2.83); values are not corrected for it. The control count says in how many pairings with the empty strains this scFv gave a signal, with their mean in brackets.

CDR-H1	CDR-H2	CDR-H3	log10 Kd, replicates	log10 Kd (nM), mean	empty controls
GFTLNSYGKS	VIYNDGRRVFYGDSVK	GRAAGTFDS	5.54 / n.d. / n.d.	5.54	6/9 (4.62)
GFTLNSYGIS	VIYSDGRRTFYGDHVK	GRAAWTFDS	1.45 / 1.54 / 1.76	1.58	0/9
GFTLFSYGIS	VIYSDGRRTFYGDSVK	TRAAGIFDS	n.d. / n.d. / 4.32	4.32	2/9 (4.68)
GFTLNSYAIS	VIYSDGRTTFYGFSVK	GRAAGTFDS	n.d. / n.d. / n.d.	n.d.	1/9 (3.64)
GFTTNSYGIS	VIYRDGRRTFYGHSVK	GRAAGTFDS	n.d. / n.d. / n.d.	n.d.	0/9
GFELNSYGIS	VIYSDGRRTFYGDSVK	RRAAGTFTS	n.d. / n.d. / n.d.	n.d.	0/9
GSTLNSYGIS	VITSDGRRTFYGDSVK	GRHAGTFDS	n.d. / n.d. / n.d.	n.d.	1/9 (3.26)
GFELNSYGIS	VIYSDGRRTFAGDSFK	GRAAGTFDS	1.59 / 1.74 / 1.32	1.55	0/9
GFTLNSSGIS	FIYSDGRRTFYGDSVK	GRAAGPFDS	n.d. / n.d. / n.d.	n.d.	2/9 (4.13)
HFYLNSYGIS	VIYSDYRRTFYGDSVK	GRAAGTFDS	n.d. / n.d. / 2.30	2.30	1/9 (3.88)
GFTLNSYGIS	VIYSDGRETFYGDSVQ	RRAAGTFDS	n.d. / n.d. / n.d.	n.d.	1/9 (2.77)
GFTLNSYSIS	VIYSDGRKTFKGDSVK	GRAAGTFDS	5.79 / 3.33 / n.d.	4.56	2/9 (3.96)
GFTLNSYGIS	VTYSDGRRTFYGESVK	GYAAGTFDS	n.d. / n.d. / n.d.	n.d.	0/9
GFTLNSYGIL	VIYLDGRRTFYGDSVW	GRAAGTFDS	n.d. / n.d. / n.d.	n.d.	0/9
GFTLNSYGIS	VIYSDGRRTFYGDSIF	GRAAGTFDS	n.d. / n.d. / 2.86	2.86	0/9
GFCLNSYGIS	VIYADGRRTFYGDSVK	GRAAGTFDS	0.16 / 0.42 / 0.24	0.27	0/9
HFTLNSYGIS	VIYSDGRRTFYGDSVK	GRAAQTFPS	2.86 / 2.35 / 2.76	2.66	4/9 (3.56)
GFTLNSYGIS	VIYSDGRLGFYGGSVK	GRAAGTFDS	4.88 / 4.60 / n.d.	4.74	3/9 (4.84)
GFTLNSYGIS	VIYSDGRKTDYPDSVK	GRAAGTFDS	n.d. / n.d. / n.d.	n.d.	0/9
GFTLNSFGIS	VIYSDGRRTFYGDSVK	GRAAVTFDS	n.d. / n.d. / n.d.	n.d.	1/9 (2.11)
GFTLNEYGIS	VIYSDGRRTFYGDSVK	GQAKGTFDS	1.13 / 1.43 / 1.55	1.37	4/9 (3.84)
GFTLNSYGIS	WIYSDGRRTFYGDSVK	GRTAGEFDS	n.d. / n.d. / n.d.	n.d.	0/9
GFTLNMYGIS	VIYSDGRRTFYGDSVK	WRAAGMFDS	-0.02 / 0.47 / 0.45	0.30	1/9 (2.74)
GFTLNSYGWS	CIYSDGRRTFYGDSVK	GRAAGTKDS	n.d. / 5.08 / 4.78	4.93	1/9 (3.47)
GFWLGSYGIS	VIYSDGRRTFYGDSVK	GRAAQTFDS	n.d. / n.d. / n.d.	n.d.	0/9
GFTLVSYGIS	VIYSDGMRTFYGDSVK	GRAGGTFDS	3.20 / 2.52 / 2.69	2.80	1/9 (3.04)
GFTLNSYGIS	VIYSDGRQTFYGDSTK	GRAAGTFDR	n.d. / n.d. / n.d.	n.d.	3/9 (4.54)
GFTLKSPGIS	VIYSDGRRTAYGDSVK	GRAAGTFDS	1.23 / 1.66 / 1.50	1.47	8/9 (4.42)
GFTLNSYGIS	VIWSDGRRTFEGDSVK	MRAAGTFDS	n.d. / n.d. / n.d.	n.d.	0/9
GFTLNSYGIS	VIYSDGRRTFYGDSVK	GRCAGTFPS	n.d. / n.d. / n.d.	n.d.	0/9
GFTLNSYGIS	VIYSDGRRTIIGASVK	GRAAGTFDS	n.d. / n.d. / n.d.	n.d.	0/9
GFTLNSLGIS	VQYSDGRRTFYGDSRK	GRAAGTFDS	n.d. / n.d. / n.d.	n.d.	0/9
GWTLNSYQIS	VIYSDGRRTFYGDSVK	GRAAGTFDK	4.86 / n.d. / n.d.	4.86	4/9 (4.05)
GMTLNSYGCS	VIYSDGRRTFYGDSVF	GRAAGTFDS	n.d. / 4.85 / n.d.	4.85	1/9 (4.67)
GFTLSSYGIL	VIYSDGRRTFYGDSVK	GRAAGTFCS	n.d. / n.d. / n.d.	n.d.	1/9 (4.22)
GFTLNSYGIS	CIYSDGRRTFYGDSPK	GRAAGFFDS	n.d. / n.d. / n.d.	n.d.	1/9 (3.95)
GFTSNSYGIS	VIYPDGRRCFYGDSVK	GRAAGTFDS	n.d. / n.d. / n.d.	n.d.	1/9 (3.77)
GFTLNSYGIS	VIYSDGRETFYGDSVK	GRAAGTFVS	n.d. / n.d. / n.d.	n.d.	1/9 (3.86)
GTTLNSYKIS	VIYSDGRRTFYGDSVK	ERAAGTFDS	n.d. / n.d. / n.d.	n.d.	0/9
GFTLNSPGIS	VIWSDGRRTFYGDSVK	HRAAGTFDS	n.d. / n.d. / n.d.	n.d.	1/9 (5.02)
AFTLNSYGIS	VIYSDDRRTFYGDSVK	GRAAGTFDS	n.d. / n.d. / n.d.	n.d.	0/9
GFFLNSLGIS	VIYSDGRRTFRGDSVK	GRAAGTFDS	n.d. / n.d. / n.d.	n.d.	2/9 (4.15)
GFTLNSYIDS	VIYSDGRRTTYGDSVK	GRAAGTFDS	n.d. / n.d. / n.d.	n.d.	2/9 (3.23)
GFHLNSYGIS	VIYSDGRRTFYPDSVK	GRMAGTFDS	1.32 / 1.14 / 1.38	1.28	0/9
GFTLNLYGIS	VIYSCGRRTFYGDSVK	GRAAGTFDS	n.d. / n.d. / n.d.	n.d.	2/9 (4.81)
GFTLNSYGIV	VIYSDGRRTFYGDSVK	YRAAGTFDS	n.d. / n.d. / n.d.	n.d.	1/9 (2.99)
GFTLNSYGIS	VIYSWGRRTFYGDSVK	GFAAGTFDP	n.d. / n.d. / n.d.	n.d.	0/9
GFDLNSYHIS	VIYSDGRRTFYGNSVK	GRAAGTFDS	n.d. / n.d. / n.d.	n.d.	2/9 (3.46)
GFTLWSYGIY	VIYSDGDRTFYGDSVK	GRAAGTFDS	n.d. / n.d. / n.d.	n.d.	1/9 (3.28)
GFTLNSYGIS	VIYSDGRRTFKGDSQK	GRACGTFDS	3.84 / n.d. / 3.50	3.67	4/9 (4.22)
GFTLNSYWIS	VIYSDGRMTFYGDSVK	GRAAGLFDS	n.d. / 3.71 / 4.88	4.29	1/9 (4.75)
GFTLNPYGSS	VIYSPGRRTFYGDSVK	GRAAGTFDS	n.d. / n.d. / n.d.	n.d.	1/9 (3.83)

Values reported by Engelhart et al. 2022, doi:10.1038/s41597-022-01779-4 (FLAb copy).